Measurements reported in patent US9481646B2, “Low calcemic, highly antiproliferative, analogs of calcitriol” (The Johns Hopkins University, priority 2007, dated 2016).

Molecular target: T1, recombinant human VDR and a reporter gene containing a vitamin D response element (VDRE) (Homo sapiens, UniProt P11473)
T1 sequence (P11473 1-427): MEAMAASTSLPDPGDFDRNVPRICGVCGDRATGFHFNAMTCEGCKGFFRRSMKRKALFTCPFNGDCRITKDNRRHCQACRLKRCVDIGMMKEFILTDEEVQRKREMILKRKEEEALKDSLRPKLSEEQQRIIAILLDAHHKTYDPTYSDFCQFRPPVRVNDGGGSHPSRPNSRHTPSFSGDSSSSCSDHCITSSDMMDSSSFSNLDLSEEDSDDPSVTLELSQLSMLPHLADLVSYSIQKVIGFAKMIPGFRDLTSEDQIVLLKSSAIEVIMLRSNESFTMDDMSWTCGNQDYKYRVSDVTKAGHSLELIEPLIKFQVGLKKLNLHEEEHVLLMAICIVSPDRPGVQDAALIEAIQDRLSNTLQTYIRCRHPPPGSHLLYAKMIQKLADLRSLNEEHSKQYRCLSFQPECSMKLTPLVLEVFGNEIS

SMILES: C=C1/C(=C\C=C2/CCC[C@]3(C)[C@@H]([C@H](C)COCC4=CCCCC4(C)C)CC[C@@H]23)C[C@@H](O)C[C@@H]1O [Analog 1d]
- Transcriptional Activity ED50: 52 nM
